{"source": "patent US20180127735A1", "key": {"[1]": {"target": "fibrinogen (UniProt P02671)"}, "[2]": {"target": "protein C (UniProt P04070)"}}}
{"substance": "thrombin", "values": [{"measurement": "clotting time (turbidity of fibrin clot formation)", "setting": "[1]", "result": "Thrombin rapidly triggered the fibrin formation within 5 minutes"}, {"measurement": "specificity value (kcat/km) of protein C cleavage by thrombin with exogenous full-length thrombomodulin added", "setting": "[2]", "result": "a specificity value of 220 mM^-1s^-1"}]}
